The source of these data is PubChem BioAssay AID463195 (Sanford-Burnham Center for Chemical Genomics, 2010).

The list shows a part of the results, in another mix than the full data. The source made the active and inactive calls.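 How the source made its calls: active means inhibition of 40% or more at the single tested concentration; inactive means the rest.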

For orientation: inhibition means how much of the control response was suppressed.

The assay can be described thus: growth inhibitors of isogenic TIM10 control yeast, primary screen, counter-screen for tim10-1 yeast inhibitor project, luminescence, uHTS (AID 463195).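 Further: wild-type TIM10 isogenic control strain grown at permissive 25 °C; 0% = DMSO yeast wells and 100% = minimal medium wells without yeast.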 The settings on record: S. cerevisiae TIM10 strain growth, BacTiter-Glo luminescence, 24 h; at 10 µM; stronger effect = higher value. In general terms: Counterscreens check selectivity or assay interference.
In the case of `COc1ccc(OP(C)(=O)Nc2ccccn2)cc1` (stereo unspecified), the inhibition was inactive: 11.7%.
